Values of other authors, collected in patent US8759371B2, “Heterocyclic compounds and their uses” (Amgen Inc., priority 2010, dated 2014).
pIC50: −log10 of the molar value.

Chains of the proteins cited; added tags and fusions are not shown.
UniProt P42338, whole entry, species assumed: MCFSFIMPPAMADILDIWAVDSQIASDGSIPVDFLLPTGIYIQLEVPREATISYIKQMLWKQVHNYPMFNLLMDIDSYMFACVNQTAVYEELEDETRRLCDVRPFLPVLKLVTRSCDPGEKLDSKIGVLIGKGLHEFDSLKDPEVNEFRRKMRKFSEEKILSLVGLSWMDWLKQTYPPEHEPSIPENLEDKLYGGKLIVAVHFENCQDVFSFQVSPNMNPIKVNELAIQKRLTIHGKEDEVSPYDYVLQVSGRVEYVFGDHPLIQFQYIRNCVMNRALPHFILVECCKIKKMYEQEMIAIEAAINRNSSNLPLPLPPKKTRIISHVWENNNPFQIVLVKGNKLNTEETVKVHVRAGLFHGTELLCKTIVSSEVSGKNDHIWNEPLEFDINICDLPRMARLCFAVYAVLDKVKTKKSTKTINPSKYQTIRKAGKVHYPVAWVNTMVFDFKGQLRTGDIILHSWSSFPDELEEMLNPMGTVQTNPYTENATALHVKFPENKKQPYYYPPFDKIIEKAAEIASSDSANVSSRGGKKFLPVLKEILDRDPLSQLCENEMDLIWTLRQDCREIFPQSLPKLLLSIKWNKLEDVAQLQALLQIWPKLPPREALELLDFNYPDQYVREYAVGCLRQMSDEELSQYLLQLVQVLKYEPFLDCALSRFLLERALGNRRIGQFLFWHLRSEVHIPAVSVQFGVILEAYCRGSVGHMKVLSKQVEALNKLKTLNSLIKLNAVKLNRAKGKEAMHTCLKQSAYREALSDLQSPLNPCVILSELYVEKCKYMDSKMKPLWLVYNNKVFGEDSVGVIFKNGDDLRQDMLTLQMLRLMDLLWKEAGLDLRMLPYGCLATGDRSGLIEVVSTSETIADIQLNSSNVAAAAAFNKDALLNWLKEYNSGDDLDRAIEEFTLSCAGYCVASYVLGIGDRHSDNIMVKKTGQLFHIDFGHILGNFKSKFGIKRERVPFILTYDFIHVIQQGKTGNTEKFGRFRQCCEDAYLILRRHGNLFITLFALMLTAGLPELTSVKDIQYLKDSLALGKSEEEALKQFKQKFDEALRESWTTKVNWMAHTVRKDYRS

Target: p110β (Homo sapiens, UniProt P42338)
Settings: quantity not given; read-out: potency on beta

Cc1cc(C(C)Nc2ccccc2)c2nc(N3CCOCC3)cc(=O)n2c1 (stereo not shown) [TGX-221]
pIC50: 8.15
